Earlier results as cited in publication PMC8645912 (ESMO Open, 2021).

Tested on: metastatic renal cell carcinoma
Details: mRCC; cited from earlier work

SMILES: CCN(CC)CCNC(=O)c1c(C)[nH]c(/C=C2\C(=O)Nc3ccc(F)cc32)c1C [Sunitinib]
- Css,trough associated with higher toxicity rate: • ≥100 ng/ml higher toxicity rate

SMILES: CNC(=O)c1ccccc1Sc1ccc2c(/C=C/c3ccccn3)n[nH]c2c1 [Axitinib]
- Css,trough associated with ≥G2 hypothyroidism: > 6.6 ng/mL

SMILES: Cc1ccc(Nc2nccc(N(C)c3ccc4c(C)n(C)nc4c3)n2)cc1S(N)(=O)=O [Pazopanib]
- Css,trough associated with higher rate of hypertension: • ≥15 μg/ml associated with higher rate of hypertension
